Data on one substance can be found in patent US20110070314A1 (priority 2009, published 2011).

The test system of data set [1] is MDA-MB-231 (breast cancer). Put plainly: Cell survivability, Hoechst 33342 / propidium iodide staining, 24 h treatment. It is filed as cell-based, human. To be noted: breast cancer cells (MDA-MB-231).
In data set [2] the test system is u87MG (brain cancer). The data set is described as above. It is filed as cell-based, human. Conditions: brain tumor cells (u98MG as printed).
Data set [3] deals with U-87MG orthotopic glioblastoma. To be noted: model I, 1.25, 2.5 and 5 mg/kg P.O.

Regarding sodium meta arsenite, the figures for the LD50 in data set [1] and in data set [2] were 0.03 to 0.05 µM and 0.03 µM, respectively. In data set [3], the “Side effects in terms of liver enzyme levels, body weight and lethality” value was “None of the treatments caused any side effects”.
